Laboratory results: patent US20250051444A1 (published 2025)

target: mouse LRRC15 (mouse, UniProt Q80X72 22-579); assay: FACS binding to CHO cells

EC50 [nM]	Binder
1.17	L15-06 (antibody, V domains shown) VH: EVQLLESGGGLVQPGGSLRLSCAASGFTFSSYYMSWVRQAPGKGLEWVADISVSGSYTNYADSVKGRFTISRDNSKNTLYLQMNSLRAEDTAVYYCARIGSYRSFFSTDDGDSLDYWGQGTLVTVSS VL: not shown
1.78	L15-08 (antibody, V domains shown) VH: QVQLVESGGGLVKPGGSLRLSCAASGFTFSDYYMSWIRQAPGKGLEWVSDISVSSSYTNYADSVKGRFTISRDNAKNSLYLQMNSLRAEDTAVYYCARLGGYRSFFSTDDGDSLDYWGQGTLVTVSS VL: not shown
186	L15-07 (antibody, V domains shown) VH: QVQLVQSGAEVKKPGSSVKVSCKASGGTFSTYAISWVRQAPGQGLEWMGGITPMFGTPNYAQKFQGRVTITADESTSTAYMELSSLRSEDTAVYYCARGDWYDYHFDYWGQGTLVTVSS VL: QSALTQPASVSGSPGQSITISCTGTSSDVGGYNYVSWYQQHPGKAPKLMIYEVSNRPSGVSNRFSGSKSGNTASLTISGLQAEDEADYYCQSYANRDNFVVFGGGTKLTVL
